Legend:
[1] = test system: antigen HER2-positive gastric cancer cell line NCI-N87; experiment: In vitro cytotoxicity of ADC (CellTiter Glo), NCI-N87; assay type: cell-based, human
Protocol: (§1) The vial containing the target cells was gently stirred in a 37° C. water bath to be thawed.
(§2) After the content was thawed, the vial was taken out from the water bath and decontaminated by immersion or spraying with 70% ethanol.
(§3) The cells were re-suspended in the culture medium, settled and distributed into a culture flask with an area of 75 cm^2.
(§4) The resulting culture was incubated in a Galaxy® CO2 incubator (48R, #C048312044) with 5% CO2 at 37° C., and the oxygen concentration in the incubator was 0.1%.
(§5) The cells were passaged three times a week at a ratio of 1:4 in a medium containing 10% […] (heat inactivated) and 1% penicillin-streptomycin solution.
(§6) For the passaged cells, the adherent cells were firstly rinsed with trypsin/EDTA solution (3 mL), then trypsin/EDTA (3 mL, T75 flask) was added, and spun to coat the cells evenly. The resulting culture was incubated at 37° C. until the cells were detached. It was observed by microscope to verify that the cells had been detached, then an equal volume of cell culture medium was added to inactivate trypsin, the detached cells were collected, and centrifuged at 200 g for 5 minutes, and then re-suspended in a fresh culture medium. […]
(§7) The cells were harvested and counted to determine the number of cells;

[2] = test system: antigen HER2-weakly positive breast cancer cell line MCF-7; experiment: In vitro cytotoxicity of ADC (CellTiter Glo), MCF-7; assay type: cell-based
Protocol: as §1, §2, §3, §4, §5, §6, §7

[3] = test system: antigen HER2-positive breast cancer cell line HCC1954; experiment: In vitro cytotoxicity of ADC (CellTiter Glo), HCC1954; assay type: cell-based
Protocol: as §1, §2, §3, §4, §5, §6, §7

[4] = test system: antigen HER2-negative breast cancer cell line MDA-MB-468; experiment: In vitro cytotoxicity of ADC (CellTiter Glo), MDA-MB-468; assay type: cell-based
Protocol: as §1, §2, §3, §4, §5, §6, §7

[5] = In vivo safety evaluation, maximum tolerated dose (MTD) in normal CD-1 mice; conditions: tail vein, doses 10, 20, 40, 80 and 120
[6] = test system: antigen HER2-positive breast cancer cell line BT-474; experiment: In vitro cytotoxicity of ADC (CellTiter Glo), BT-474; assay type: cell-based, human
Protocol: as §1, §2, §3, §4, §5, §6, §7

MAB: anti-HER2 humanized monoclonal antibody mil40, a biosimilar of Herceptin, purchased from Zhejiang Hisun Pharmaceutical
IC50 [1]: 28.5 nM
IC50 [2]: 4190 nM
IC50 [3]: 240 nM
IC50 [4]: 1840 nM
tolerability (adverse reactions, body weight, death) [5]: no obvious adverse reactions, body weight loss or death of animals
IC50 [6]: 84.1 nM

From patent US12115226B2, “Linker containing arylnitro, antibody-drug conjugate containing linker and use of linker” (Academy of Military Medical Sciences, priority 2018, dated 2024)
